For this test, the target named is P2X purinoceptor 3 (Rattus norvegicus) (UniProt P49654). Put plainly: The compound was evaluated for antagonist activity against recombinant rat P2X purinoceptor 3 (P2X3) at 10 uM,expressed in Xenopus oocytes.

By EC50 is commonly meant the concentration needed to bring the measured effect to its halfway point. Turning to `Cc1nc(/N=N/c2ccc(S(=O)(=O)O)cc2S(=O)(=O)O)c(COP(=O)(O)O)c(C=O)c1O`, the EC50 came out at 240 nM.

Source of the values: BindingDB's records for doi:10.1021/jm020046y (National Institute of Diabetes, 2002).
